The values below come from US20240099298A1, “BIOINSECTICIDAL COMPOSITIONS CONTAINING MONOTERPENES AND METHODS OF USE THEREOF” (priority 2017, published 2024).

Protein sequences, listed by entry. Tags and fused reporters are not part of them. Residues count along the entry.
UniProt A0A6J1T1Q2, 1-118: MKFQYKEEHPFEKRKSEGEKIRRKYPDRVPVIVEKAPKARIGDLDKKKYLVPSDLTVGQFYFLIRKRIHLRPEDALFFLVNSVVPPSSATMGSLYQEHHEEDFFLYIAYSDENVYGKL

This experiment concerns the target recombinant gamma-aminobutyric acid receptor-associated protein (rGABARAP) (Frankliniella occidentalis, UniProt A0A6J1T1Q2). Briefly: Microscale thermophoresis (MST) binding to rGABARAP. To be noted: read-out: Kd value, MST.

Each structure is given as a SMILES string.

For the compound `CC(C)=C1CCC(C)CC1=O` (racemic), the Kd (usually a measure of binding affinity in units of concentration) worked out at 2060 nM.
